Experiments:
B220+ cells = assay: B7-1 and B7-2 expression on B220+ cells (flow cytometry); type: cell-based; conditions: freshly isolated splenocytes of IP immunized mice
Description: In flat-bottom 24-well culture plates (Corning), suspensions of 2.5×10^6 cells per ml were cultured with ConA (2 μg/ml) or without restimulation at 37° C. in supplemented RPMI 1640 medium as described above. 24, 72 and 120 hrs later, the cell cultures were then centrifuged, and the culture supernatants were harvested and kept frozen (−80° C.) until assayed. Pelleted cells were resuspended then stained with mAbs coupled to FITC or PE for immunofluorescent staining. IL-2, IL-4, IL-5, IL-10 and IFN-γ levels in supernatants from ConA-stimulated or unstimulated splenocytes were measured by capture ELISA. In brief, Maxisorp microtitre plates (Nunc Laboratories Ltd., Denmark) were coated with 50 μl of capture Ab at 2.0 μg/ml (rat anti-mouse IL-5, IL-10 and IFN-γ from Pharmingen and rat anti-mouse IL-4 from Endogen, Mass.) in Carbonate-bicarbonate buffer by overnight incubation at 4° C. Wells were then washed with PBS-T four times and blocked by addition of 10% FCS in PBS (2 hours, 37° C.). 50 μl of culture supernatants and appropriate recombinant standards were then added to individual well in duplicate. For standard curves, recombinant IL-5 (0 to 5,000 pg/ml), IL-10 (0 to 25,000 pg/ml), IFN-γ (0 to 20,000 pg/ml) (Pharmingen, Calif.) and IL-4 (0 to 1,500 pg/ml) (Endogen, Mass.) were used in duplicate. […] Absorbance was measured at 405 nm using a UVMax automatic microplate reader. […]

splenocytes = assay: Cytokine assays of splenocyte culture supernatants (capture ELISA); type: cell-based, mice; conditions: ConA (72 hrs)
Description: In flat-bottom 24-well culture plates (Corning), suspensions of 2.5×10^6 cells per ml were cultured with ConA (2 μg/ml) or without restimulation at 37° C. in supplemented RPMI 1640 medium as described above. 24, 72 and 120 hrs later, the cell cultures were then centrifuged, and the culture supernatants were harvested and kept frozen (−80° C.) until assayed. Pelleted cells were resuspended then stained with mAbs coupled to FITC or PE for immunofluorescent staining. IL-2, IL-4, IL-5, IL-10 and IFN-γ levels in supernatants from ConA-stimulated or unstimulated splenocytes were measured by capture ELISA. In brief, Maxisorp microtitre plates (Nunc Laboratories Ltd., Denmark) were coated with 50 μl of capture Ab at 2.0 μg/ml (rat anti-mouse IL-5, IL-10 and IFN-γ from Pharmingen and rat anti-mouse IL-4 from Endogen, Mass.) in Carbonate-bicarbonate buffer by overnight incubation at 4° C. Wells were then washed with PBS-T four times and blocked by addition of 10% FCS in PBS (2 hours, 37° C.). 50 μl of culture supernatants and appropriate recombinant standards were then added to individual well in duplicate. For standard curves, recombinant IL-5 (0 to 5,000 pg/ml), IL-10 (0 to 25,000 pg/ml), IFN-γ (0 to 20,000 pg/ml) (Pharmingen, Calif.) and IL-4 (0 to 1,500 pg/ml) (Endogen, Mass.) were used in duplicate. […] Absorbance was measured at 405 nm using a UVMax automatic microplate reader.

Human serum albumin [HSA]
percentage of the cells positive for both B7-2 and B220 (B220+ cells): 0.59±0.05 percentage
percentage of the cells positive for both B7-1 and B220 (B220+ cells; n=6): 0.95±0.07 percentage
IFN-g (splenocytes): 3358 ± 471 pg/mL

— patent US20040047866A1, “Immunomodulatory methods using carbohydrate antigens” (President and Fellows of Harvard College, priority 2002, published 2004)
